In this assay the target is Metabotropic glutamate receptor 2 (Homo sapiens, UniProt Q14416). Nature of the assay: Biological Assay: The utility of the compounds in accordance with the present invention as antagonists of metabotropic glutamate receptor activity, in particular mGluR2 activity, may be demonstrated by methodology known in the art. Antagonist constants are determined as follows. The compounds of the present invention were tested in a fluorescence laser imaging plate reader based assay. This assay …. Format: cell-based.

The chains behind the UniProt entries cited, without tags or fusion partners. Where a name states a change or a piece, a line headed by the entry shows the natural chain unless it says otherwise.
UniProt Q14416: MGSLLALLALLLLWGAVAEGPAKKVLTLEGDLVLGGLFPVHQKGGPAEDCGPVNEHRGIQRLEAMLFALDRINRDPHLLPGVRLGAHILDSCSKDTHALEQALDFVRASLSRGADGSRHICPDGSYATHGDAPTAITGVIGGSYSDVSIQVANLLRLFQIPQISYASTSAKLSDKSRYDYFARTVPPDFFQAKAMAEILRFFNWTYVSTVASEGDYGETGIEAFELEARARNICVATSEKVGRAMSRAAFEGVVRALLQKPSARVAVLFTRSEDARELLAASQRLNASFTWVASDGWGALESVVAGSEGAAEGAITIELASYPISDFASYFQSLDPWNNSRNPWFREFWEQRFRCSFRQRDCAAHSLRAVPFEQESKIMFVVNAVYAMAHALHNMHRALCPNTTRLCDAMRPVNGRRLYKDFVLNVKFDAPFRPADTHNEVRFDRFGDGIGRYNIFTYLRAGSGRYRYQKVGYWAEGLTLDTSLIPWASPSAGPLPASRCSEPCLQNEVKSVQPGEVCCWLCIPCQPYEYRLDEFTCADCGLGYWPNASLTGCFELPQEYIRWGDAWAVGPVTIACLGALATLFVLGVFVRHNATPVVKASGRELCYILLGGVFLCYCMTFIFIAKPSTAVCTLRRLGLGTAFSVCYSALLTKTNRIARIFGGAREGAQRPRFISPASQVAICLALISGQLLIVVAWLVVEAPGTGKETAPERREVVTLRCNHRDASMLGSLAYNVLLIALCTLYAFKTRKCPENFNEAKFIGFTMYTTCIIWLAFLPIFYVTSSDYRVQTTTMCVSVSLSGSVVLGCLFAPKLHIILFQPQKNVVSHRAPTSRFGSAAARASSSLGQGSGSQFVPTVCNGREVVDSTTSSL

As to `C[C@H]1CN[C@H](C(F)(F)F)CN1Cc1ccc2c(-c3ccc(F)cc3)cc(C(N)=O)nc2c1`, it took 11 nM to reach half-maximal inhibition (IC50).
Next, `CC[C@](O)(c1cn(Cc2ccc3c(Cl)cc(C#N)nc3c2)nn1)C(F)(F)F`: 85 nM.
For `C[C@H]1CN[C@@H](C(F)(F)F)CN1Cc1ccc2c(-c3ccc(F)cc3)cc(C(N)=O)nc2c1` the value was 9 nM.
For `Cc1ccc2c(-c3ccc(Cl)cc3)cc(C(N)=O)nc2c1` the value was 159 nM; for `COC(=O)c1cc(-c2ccc(OC)cc2F)c2ccc([C@H](C)Cc3cnc(C)nc3)cc2n1` (single isomer, unassigned), 7 nM; for `COC(=O)c1cc(-c2ccc(OC)cc2F)c2ccc([C@@H](C)Cc3cnc(C)nc3)cc2n1` (single isomer, unassigned), 6 nM.
